Publication PMC7180617, “Biological Evaluation of 3-Benzylidenechromanones and Their Spiropyrazolines-Based Analogues” (Molecules, 2020)

Experiment: Lipophilicity (logP) by RP-TLC
Text: Lipophilicity is one of the most important physicochemical properties in pharmaceutical research. It can be considered a key determinant of the pharmacokinetic properties of a drug. It is commonly measured by the partition coefficient between water and n-octanol, being expressed as logP [14]. […] Knowledge of the partition coefficient is valuable: it is frequently used in structure–activity relationship (SAR) and quantitative structure–activity relationship (QSAR) studies. The experimental lipophilicity of the synthesized compounds, viz. benzylideneflavanones, benzylidenechromanones and spiropyrazolines, was determined using RP-TLC. […] It is important to examine the relationship between structure of the compound and its lipophilicity and cytotoxicity.
The RP-TLC experiments were performed on TLC plates (5 × 10 cm) RP-18 F254S (Merck, Darmstadt, Germany). The synthesized compounds were dissolved in N,N-dimethylformamide DMF (2 mg/mL). […] A DMF-water solvent system was used as mobile phase. […] All experiments were performed at room temperature. The logP parameter was calculated using the equation from the calibration curve.

O=c1c(O)c(-c2ccc(O)c(O)c2)oc2cc(O)cc(O)c12 [Quercetin, reference compound]
chromatographic logP: 2.16
